Data from PubChem BioAssay AID612 (The Scripps Research Institute Molecular Screening Center, 2007).
Only a part is listed here, and it is no random draw. Active and inactive are the calls of the source.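 The calls were made as follows: active = inhibition above the mean of all tested compounds plus 3 SD (cut at about 43% in these data); inactive = the rest.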

Sequences of proteins named here, by UniProt entry; tags and fusion partners are left off.
UniProt P08908, whole entry, looked up: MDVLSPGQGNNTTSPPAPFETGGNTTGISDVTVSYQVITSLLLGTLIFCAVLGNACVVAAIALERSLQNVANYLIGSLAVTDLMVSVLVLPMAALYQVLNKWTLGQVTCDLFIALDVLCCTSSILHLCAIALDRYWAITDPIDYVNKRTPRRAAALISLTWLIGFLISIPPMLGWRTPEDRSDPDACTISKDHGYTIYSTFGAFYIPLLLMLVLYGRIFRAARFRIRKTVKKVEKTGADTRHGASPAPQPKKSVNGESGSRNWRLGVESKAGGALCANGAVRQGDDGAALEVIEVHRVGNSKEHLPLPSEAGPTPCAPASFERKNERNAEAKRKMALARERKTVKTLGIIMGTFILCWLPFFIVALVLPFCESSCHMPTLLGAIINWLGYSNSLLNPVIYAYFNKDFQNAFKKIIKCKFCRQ

Biological target: 5-hydroxytryptamine receptor 1A (Homo sapiens) (UniProt P08908)
Assay: blockade of serotonin HTR1A receptor – cell-based, CHO, Ga15 NFAT-bla reporter, primary screen (AID 612);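 also: receptor stimulated by 5-CT agonist at 100 nM near EC80; beta-lactamase reporter measured by ratiometric fluorescence of a cleavable substrate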
Conditions: CHO 5-HT1a Ga15 NFAT-bla reporter, antagonist mode; at 10 µM; stronger effect = higher value

Compound | inhibition
Cc1c2non([O-])c-2c(C)[n+](=O)[n+]1[O-] | inactive: 22%
CCc1nc2c(n1)c1c(non1O)c1c2no[n+]1[O-] | active: 86.8%
O=C(OC1CN2CCC1CC2)c1cccc(Cl)c1 (stereo not drawn) | inactive: -8.9%
O=P(Nc1nccs1)(c1ccccc1)c1ccccc1 | inactive: -10.4%
c1nnnn1CCn1cnnn1 | inactive: 0.1%
O=P1(Nc2nc3ccc(Cl)cc3s2)COc2ccccc2O1 (stereo not drawn) | inactive: -21.9%
COC(=O)c1cc2c(s1)N=C(c1ccccc1)N(C)P2(=O)N1CCOCC1 (stereo not drawn) | inactive: -1.7%
CCOP1(=S)c2c(C)nn(CCC#N)c2N=C(c2ccc(F)cc2)N1C (stereo not drawn) | inactive: 9.5%
O=P(Nc1nccs1)(c1ccccc1)c1nc2ccccc2s1 (stereo not drawn) | active: 49.5%
CCOP1(=S)c2c(C)nn(CCC#N)c2N=C(c2ccccc2F)N1C (stereo not drawn) | inactive: 13.3%
O=P1(Nc2ccccn2)COc2ccccc2OC1 | inactive: 5.9%
Clc1n[nH]nc1-c1nn[nH][15n]1 | inactive: -6.9%
O=P1(Nc2ncccn2)COc2ccccc2OC1 | inactive: -5.5%
O=P1(Nc2ccc(Br)cn2)COc2ccccc2OC1 | inactive: 1.9%
Cc1nn(-c2ccccc2)c2c1P(=O)(N1CCOCC1)N(C)C(c1ccccc1)=N2 (stereo not drawn) | inactive: 2.8%
COP1(=S)c2c(C)nn(CCC#N)c2N=C(c2ccc(F)cc2)N1C (stereo not drawn) | inactive: -4%
O=C(COc1ccccc1)OC1CN2CCC1CC2 (stereo not drawn) | inactive: 4.5%
O=C(OC1CN2CCC1CC2)C12CC3CC(CC(C3)C1)C2 (stereo not drawn) | inactive: 10.9%
